From ChEMBL document CHEMBL1155410, “Structure-based design and synthesis of novel P2/P3 modified, non-peptidic beta-secretase (BACE-1) inhibitors” (Bioorg Med Chem Lett, 2010) come the findings set out here.

A short description of experiment [1]: Selectivity ratio for BACE1 over BACE2.
Experiment [2] in a line: Selectivity ratio for BACE1 over Cathepsin D.

Consider `CC(C)c1cccc(CNC[C@H](O)[C@H](Cc2ccccc2)NC(=O)[C@@H]2CCC[C@H](C(C)(C)N3CCCCC3=O)C2)c1`, for which the Selectivity ratio in experiment [1] and in experiment [2] was 50 throughout.
